We go through 3 compounds from paper PMC11352099 (RSC Medicinal Chemistry, 2024).

In one series the target is SARS-CoV-2 nsp14 MTase (Severe acute respiratory syndrome coronavirus 2, UniProt P0DTD1). The class given is biochemical. As to conditions: methyl group on the amidic nitrogen.
The next series can be described thus: in vitro. As to conditions: human.

Take `Cc1cc(=O)[nH]c2cc(N(C)C(=O)[C@H]3O[C@@H](n4cc(C#Cc5cncnc5)c5c(N)ncnc54)[C@H](O)[C@@H]3O)ccc12` [18q]: the “fold decrease in inhibitory activity” value on SARS-CoV-2 nsp14 MTase was found to be 20 fold.

A word on the efflux ratio: it is a quotient of directional permeabilities that is used to spot active efflux. Broadly, the Papp A→B is the apparent permeability from the apical to the basolateral side of a cell layer. A lower Papp A→B goes with slow passage. For the compound `Cc1cc(=O)oc2cc(NC(=O)[C@H]3O[C@@H](n4cc(C#Cc5cncnc5)c5c(N)ncnc54)[C@H](O)[C@@H]3O)ccc12` [18l], the efflux ratio at 2 h, 10 µM in the series “in vitro” (Caco-2) turned out to be 0.8. Also, the recovery at 2 h, 10 µM in the series “in vitro” (Caco-2, Recovery (%) B-A) was found to be 101%. The Papp A→B at 2 h, 10 µM in the series “in vitro” (Caco-2, pH 7.4) came to 10.1 ± 4 ×10⁻⁶ cm/s. In addition, in the series on Caco-2 monolayers, the “Papp A-B” value is 10.1 ± 4.0 cm/s x 10-6.

Usually Papp B→A stands for the apparent permeability from the basolateral to the apical side of a cell layer. Compound `C[C@H]1O[C@@H](O[C@H]2[C@@H](O)C[C@H](O[C@H]3[C@@H](O)C[C@H](O[C@H]4CC[C@@]5(C)[C@H](CC[C@@H]6[C@@H]5C[C@@H](O)[C@]5(C)[C@@H](C7=CC(=O)OC7)CC[C@]65O)C4)O[C@@H]3C)O[C@@H]2C)C[C@H](O)[C@@H]1O` [Digoxin, reference compound] gave a Papp B→A at 2 h, 10 µM in the series “in vitro” (Caco-2, pH 7.4) of 13.8 ± 0.9 ×10⁻⁶ cm/s.
